Measurements published in patent US9410137B2, “Compositions and methods for modulating hemostasis” (The Children's Hospital of Philadelphia, priority 2005, dated 2016).
Like-named read-outs stand apart in the source and are kept apart here.

What was measured:
FVa = target: T1, FVa (Homo sapiens, UniProt P12259); assay: Equilibrium binding for prothrombinase assembly (displacement of fluorescent inactive wtFXa from FVa-membranes); settings: FVa-membranes, competition with fluorescent inactive wtFXa
T1 sequence (P12259 29-737 limits assumed): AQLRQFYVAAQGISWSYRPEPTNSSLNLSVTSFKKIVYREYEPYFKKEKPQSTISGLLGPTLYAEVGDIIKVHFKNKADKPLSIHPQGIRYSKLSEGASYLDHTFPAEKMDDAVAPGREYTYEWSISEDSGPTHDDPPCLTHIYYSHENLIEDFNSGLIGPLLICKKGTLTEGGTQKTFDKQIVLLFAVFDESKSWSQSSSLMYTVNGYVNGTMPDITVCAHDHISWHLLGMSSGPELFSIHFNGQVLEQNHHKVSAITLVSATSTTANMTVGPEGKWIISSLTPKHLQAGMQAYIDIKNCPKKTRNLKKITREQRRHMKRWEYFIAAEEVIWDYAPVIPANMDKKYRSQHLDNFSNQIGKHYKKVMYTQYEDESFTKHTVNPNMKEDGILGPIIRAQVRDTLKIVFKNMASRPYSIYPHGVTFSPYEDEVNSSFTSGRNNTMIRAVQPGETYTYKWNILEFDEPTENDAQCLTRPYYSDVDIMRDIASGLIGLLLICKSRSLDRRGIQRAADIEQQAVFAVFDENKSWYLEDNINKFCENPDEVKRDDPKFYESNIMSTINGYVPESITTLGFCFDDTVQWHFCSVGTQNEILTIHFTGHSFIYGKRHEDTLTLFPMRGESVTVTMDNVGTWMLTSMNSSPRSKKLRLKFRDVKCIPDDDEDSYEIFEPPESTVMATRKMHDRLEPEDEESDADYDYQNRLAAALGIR
T1 sequence (P12259 1574-2224 limits assumed): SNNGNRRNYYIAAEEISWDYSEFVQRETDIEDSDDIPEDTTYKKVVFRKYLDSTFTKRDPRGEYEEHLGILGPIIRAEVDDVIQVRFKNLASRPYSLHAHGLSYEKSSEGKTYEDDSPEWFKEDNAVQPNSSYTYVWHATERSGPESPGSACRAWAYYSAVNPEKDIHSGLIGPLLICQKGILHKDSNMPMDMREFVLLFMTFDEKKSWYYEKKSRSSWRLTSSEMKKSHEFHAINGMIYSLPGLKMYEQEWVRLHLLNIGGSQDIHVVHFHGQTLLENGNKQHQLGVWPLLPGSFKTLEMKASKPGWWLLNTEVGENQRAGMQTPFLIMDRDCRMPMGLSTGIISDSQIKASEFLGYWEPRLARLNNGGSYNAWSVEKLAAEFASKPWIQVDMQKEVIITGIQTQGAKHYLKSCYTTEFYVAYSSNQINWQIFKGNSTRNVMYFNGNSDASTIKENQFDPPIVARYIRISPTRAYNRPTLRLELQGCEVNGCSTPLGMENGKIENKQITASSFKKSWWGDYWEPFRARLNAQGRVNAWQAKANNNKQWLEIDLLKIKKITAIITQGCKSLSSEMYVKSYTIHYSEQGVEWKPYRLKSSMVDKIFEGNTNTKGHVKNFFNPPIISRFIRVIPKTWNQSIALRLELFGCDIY

[1] = Kinetic constants for chromogenic substrate cleavage (free factor Xa or prothrombinase); type: biochemical; settings: for Km: read-out: Km ± SD
Description: (§1) Enzyme concentrations will be determined by active-site titration with ρ-nitrophenyl ρ-guanidinobenzoate (IIa) or fluorescein mono-ρ-guanidinobenzoate (FXa) (26, 27). FXa chromogenic substrate activity, in the presence or absence of various inhibitors, will be measured from initial rates of hydrolysis of Spectrozyme FXa, S-2222, or S-2765 as previously described (14). Kinetic parameters will be determined by least-squares fitting of the initial rate data to appropriate equations.

[2] = system: hemophilia B mice (C57BL/6); assay: Correction of the aPTT in hemophilia B mice; type: in vivo; settings: 200 μg/kg via tail vein; 5 and 30 min post-injection
Protocol: FIG. 7. Correction of the aPTT. Factor Xa-116L (200 μg/kg; n=7 mice) or PBS (n=4 mice) were injected into hemophilia B mice (C57BL/6) via the tail vein. At 5 and 30 min post-injection, blood was collected and an aPTT assay was performed. The red dotted line represents the aPTT value of normal C57B1/6 animals.
We next evaluated the ability of zymogen-like FXaI16L (FXaI235L) to modulate hemostasis in a murine model of hemophilia (Schlachterman, et. al., 2005, J. Thromb. Haemost., 3, 2730-2737). The aPTT value of hemophilia B mice (C57BL/6) is approximately 50-55 sec. Factor XaI16L (200 μg/kg; n=7) or PBS (n=4) were injected via the tail vein of hemophilia B mice. At selected time points (5 and 30 min) blood was collected and an aPTT was performed on all samples. […] Infusion of PBS had only a marginal effect.

[3] = Inhibition of FXa and prothrombinase by Pefabloc tPa/Xa; type: biochemical; settings: read-out: Ki ± SD Pefabloc tPa/Xa
Description: as §1

[4] = FXa chromogenic activity of rFX variants after activation with RVV-X; type: biochemical
Protocol: The FX mutants were generated using the Quick-change site-directed mutagenesis kit (Stratagene) and the entire FX cDNA was sequenced to verify the identity of the product. The various plasmids were transiently transfected into HEK 293 cells using Lipofectamine-2000. 48 hr post-transfection, media was collected and FX antigen levels were determine using a FX-specific ELISA and FXa activity was assessed by chromogenic assay prior to activation by RVV-X or by tissue factor-FVIIa.

[5] = system: hemophilia B mice (Balb c); assay: Tail-clip assay, blood loss in hemophilia B mice; type: in vivo; settings: 450 μg/kg; 10-min period after tail sectioning
Protocol: FIG. 8. Hemostatic assessment following tail-clip assay in hemophilia B mice. Blood loss is measured by the hemoglobin content of the saline solution by A525 post-injury. The number of mice (Balb c) are; wild-type (n=7); HB-PBS (n=6); and HB-FXaI16L (n=7).
To further test the effectiveness of FXaI16L (FXaI235L) in vivo, we examined whether this molecule could correct the bleeding time of hemophilia B mice following injury to the tail (Schlachterman, et. al., 2005, J. Thromb. Haemost., 3, 2730-2737). Blood loss was measured during a 10-min period after sectioning the distal part of the tail. In this type of assay, blood loss is minimal in normal wild-type Balb-c mice (n=7) and quite substantial in PBS injected (n=6) hemophilia B mice (Balb c) following the tail injury (FIG. 8).

[6] = Prothrombinase, 5.0 nM FXa, 30 nM factor Va, 50 μM PCPS

rFXa^I16L: factor X/Xa variant, Ile16 (position 235 in SEQ ID NO: 1) replaced by Leu
affinity for FVa (FVa): significantly reduced compared to FXaS195A
kcat ± SD [1, 6]: 32.5 ± 3.1 s⁻¹
Km [1, 6]: 296 ± 54 µM
Km for peptidyl substrates ([1]; assembled into prothrombinase): almost completely restored
kcat reduced ([1]; assembled into prothrombinase, compared to wild-type FXa): 3 fold
rate of catalysis (kcat) reduced ([1]; free FXa, compared to wild-type FXa (plasma-derived and recombinant)): 3 fold
kcat ± SD ([1]; free Factor Xa): 57.3 ± 3.1 s⁻¹
Km ([1]; free Factor Xa, 2.0 nM wild-type or 6.0 nM mutant): 1150 ± 244 µM
correction of the aPTT [2]: complete correction of the aPTT to levels seen in normal animals
Ki ([3]; Prothrombinase): 209 ± 5 nM
Ki ([3]; free Factor Xa): 1700 ± 65 nM
FXa Activity ([4]; activation of FX with RVV-X, compared to FXa standard curve): 0.25 nM
% wt (FXa activity) ([4]; activation with RVV-X, adjusted for antigen levels): 5.00%
total blood loss following tail injury [5]: significantly reduced the total amount of blood loss
